Measured values published in patent US20220204611A1 (Amgen, published 2022).

How the values were obtained:
[1] = molecular target: T1, human TREM2 on cells (human, UniProt Q9NZC2 19-230); assay: cell-based or functional assay
T1 sequence: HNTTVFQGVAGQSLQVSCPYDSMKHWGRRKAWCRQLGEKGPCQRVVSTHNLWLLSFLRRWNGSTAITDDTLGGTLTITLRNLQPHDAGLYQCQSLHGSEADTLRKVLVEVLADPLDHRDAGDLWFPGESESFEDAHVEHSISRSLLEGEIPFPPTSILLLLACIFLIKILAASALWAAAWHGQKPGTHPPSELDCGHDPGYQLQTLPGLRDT

[2] = molecular target: T2, cynomolgus TREM2 on transfected HEK293 cells (cynomolgus, UniProt A0A2K5UY34 49-260); assay: FACS, transfected HEK293 cells
T2 construct: also called Cyno TREM2
T2 sequence: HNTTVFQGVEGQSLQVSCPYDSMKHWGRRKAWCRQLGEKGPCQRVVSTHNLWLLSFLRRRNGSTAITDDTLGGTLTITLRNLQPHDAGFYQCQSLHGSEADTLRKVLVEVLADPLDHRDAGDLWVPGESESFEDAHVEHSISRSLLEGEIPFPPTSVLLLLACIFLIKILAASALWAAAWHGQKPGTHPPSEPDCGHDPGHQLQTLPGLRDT

[3] = molecular target: T3, mouse TREM2 on cells (mouse, UniProt Q99NH8 19-227); assay: FACS, transfected HEK293 cells
T3 construct: whole, on cells
T3 sequence (looked up): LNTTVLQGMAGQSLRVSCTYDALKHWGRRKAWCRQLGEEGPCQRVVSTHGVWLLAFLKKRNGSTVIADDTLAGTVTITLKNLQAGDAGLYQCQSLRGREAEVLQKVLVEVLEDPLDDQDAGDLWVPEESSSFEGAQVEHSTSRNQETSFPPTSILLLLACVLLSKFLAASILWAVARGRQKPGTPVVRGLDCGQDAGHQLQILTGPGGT

[4] = molecular target: T4, human TREM1 on a cell line stably expressing human TREM1/DAP12 (human, UniProt Q9NP99 21-234); assay: FACS, human TREM1/DAP12 cell line
T4 construct: signal peptide 1-20 left out

[5] = molecular target: T4, human TREM1 on a cell line stably …; assay: FACS on cell line stably expressing human TREM1/DAP12
[6] = molecular target: T5, recombinant soluble human TREM2 protein (human TREM2 ECD-FlagHis) (human, UniProt Q9NZC2 19-174); assay: Octet BLI, antibody on anti-human Fc sensor, 25 C
T5 sequence: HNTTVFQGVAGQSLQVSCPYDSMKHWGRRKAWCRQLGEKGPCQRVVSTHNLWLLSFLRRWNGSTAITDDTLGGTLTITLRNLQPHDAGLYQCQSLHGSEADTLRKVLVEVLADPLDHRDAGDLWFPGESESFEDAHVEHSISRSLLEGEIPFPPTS
Procedure: (§1) To quantitate the binding affinity of agonist antibodies for human TREM2, association and dissociation rate constants as well as the equilibrium dissociation constant were determined using anti-human Fc (Kinetic) sensors on an Octet® HTX instrument (Pall ForteBio). Agonist anti-TREM2 antibodies were made up in DMEM null media, 250 μL at 10 μg/mL. The, 250 uL of assay buffer (10 mM Tris (pH 7.6), 0.1% Triton X-100, 150 mM NaCl, 1mM CaCl₂, and 1 mg/mL BSA) was added to the antibody solutions to a final volume of 500 μL and final antibody concentration of 5 μg/mL. The anti-human Fc sensor was pre-incubated in 200 μL of the assay buffer for a minimum of 10 minutes. The sensor was then regenerated for 5 seconds in 10 mM glycine pH 1.5. Test agonist anti-TREM2 antibodies were loaded onto the sensor for 2 minutes, and baseline measurements were taken for 2 minutes. […] The recombinant TREM2 proteins were allowed to associate with the antibody-loaded sensor for 10 minutes, and then dissociation was measured for 10 minutes. The assay was conducted at 25° C. Experimental kinetic results were globally fit to a 1:1 binding model in order to determine the association and dissociation rate constants as well as the equilibrium dissociation constant.

[7] = molecular target: T6, recombinant soluble cynomolgus TREM2 protein (cynomolgus TREM2 extracellular domain coupled to a Flag/His tag) (cynomolgus, UniProt A0A2K5UY34 49-204); assay: Octet BLI, antibody on anti-human Fc sensor, 25 C
T6 construct: extracellular domain; also called Cyno TREM2
T6 sequence: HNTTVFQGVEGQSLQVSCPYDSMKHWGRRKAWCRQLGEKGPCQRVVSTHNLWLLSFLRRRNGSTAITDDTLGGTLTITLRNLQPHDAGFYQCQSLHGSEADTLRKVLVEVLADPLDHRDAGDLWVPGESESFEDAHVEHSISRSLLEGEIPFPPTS
Procedure: as §1

Row | Binder | pSyk fold over control [1] | GM fold over irrelevant control antibody [2] | GM fold over irrelevant control antibody [3] | GM fold over irrelevant control antibody [4] | binding result [5] | koff [6] | kon [6] | koff [7] | kon [7]
1 | 24A10 (antibody, human IgG2, V domains shown, human IgG2 from hybridoma) VH: EVQVLESGGGLVQPGGSLRLSCAASGFTFSNYAMSWVRQAPGKGLEWVSAISGSGGSTYYADSVKGRFTISRDNSKNTLYLQMNSLRAEDTAVYYCAKGGWELFYWGQGTLVTVSS VL: not shown | 6.8 fold | 1.4 fold | 1.1 fold | 1.1 fold | no binding | – | – | – | –
2 | 25F12 (antibody, human IgG2, V domains shown, human IgG2 from hybridoma) VH: QVQLQQWGAGLLKPSETLSLTCAVYGGSFSSYYWSWIRQPPGKGLEWIGEINHSGNTNYNPSLKSRVTISVDTSKNQFSLKLSSVTAADTAVYYCAREGYYDILTGYHDAFDIWDQGTMVTVFS VL: not shown | 4.2 fold | 2.2 fold | 0.8 fold | 1.2 fold | no binding | – | – | – | –
3 | 26A10 (antibody, V domains shown, human IgG2 from hybridoma) VH: EVQLVESGGALVQRGGSLRLSCAASRFTFSSFGMSWVRQAPGKGLEWVSYISSSSFTIYYADSVKGRFTISRDNAKNSFYLQMNSLRDEDTAVYYCAREGGLTMVRGVSSYGLDVWGQGTTVTVSS VL: not shown | 6 fold | 37.5 fold | 0.8 fold | 1.5 fold | no binding | – | – | – | –
4 | 26F2 (antibody, V domains shown, human IgG2 from hybridoma) VH: EVQLVESGGALVQPGGSLRLSCAASGFTFSSFGMSWVRQAPGKGLEWISYISSSSFTIYYADSVKGRFTISRDNAKNSFYLQMNSLRDEDTAVYFCAREGGITMVRGVSSYGMDVWGQGTTVTVSS VL: not shown | 5.4 fold | 72.8 fold | 1.1 fold | – | – | – | – | – | –
5 | 32E3 (antibody, human IgG2, V domains shown, human IgG2 from hybridoma) VH: EVQLVQSGAEVKKPGESLKISCKGSGYSFTSYWIGWVRQMPGKGLEWMGIIYPGDSDTRYSPSFQGQVTISADKSISTAYLQWSTLKASDTAIYYCARHDIIPAAPGAFDIWGQGTMVTVSS VL: EFVLTQSPGTLSLSPGERATLSCRASQIISSNYLAWYQQKPGQAPRLLIYSASSRATGIPDRFSGSGSGTDFTLTISRLEPEDFAVYYCQQFDSSPITFGRGTRLDIK | 8.2 fold | 31 fold | 1 fold | 1.1 fold | no binding | – | – | – | –
6 | 10E3 (antibody, human IgG2, V domains shown, human IgG2 from hybridoma) VH: EVQLVQSGAEVKKPGESLMISCKGSGYSFTNYWIGWVRQMPGKGLEWMGIIYPGDSDTRYSPSFQGQVTISADKSISTAYLQWSSLKASDTAMYFCARRRQGIWGDALDIWGQGTLVTVSS VL: EIVMTQSPATLSVSPGERATLSCRASQSVSSNLAWFQQKPGQAPRLLIYGASTRATGIPARFSVSGSGTEFTLTISSLQSEDFAFYYCLQDNNWPPTFGPGTKVDIK | 12.1 fold | 82.8 fold | 1.1 fold | 1.6 fold | no binding | 0.00182 s⁻¹ | 177000 M⁻¹ s⁻¹ | 0.00366 s⁻¹ | 324000 M⁻¹ s⁻¹
7 | 13E7 (antibody, human IgG2, V domains shown, human IgG2 from hybridoma) VH: EVQLVQSGAEVKKPGESLMISCKGSGYSFTSYWIGWVRQMPGKGLEWMGIIYPGDSDTRYSPSFQGQVTISADKSISTAYLQWSSLKASDTAMYFCARRRQGIWGDALDFWGQGTLVTVSS VL: EIVMTQSPATLSVSPGERATLSCRASQSVSSNLAWFQQKPGQAPRLLIYGASTRATGIPARFSVSGSGTEFTLTISSLQSEDFAVYYCLQDNNWPPTFGPGTKVDIK | 11.4 fold | 67.5 fold | 1.1 fold | 1.4 fold | no binding | 0.00158 s⁻¹ | 144000 M⁻¹ s⁻¹ | 0.00237 s⁻¹ | 272000 M⁻¹ s⁻¹
8 | 4C5 (antibody, V domains shown, human IgG2 from hybridoma) VH: EVQLVQSGAEVKKPGESLKISCKGSGHSFTNYWIAWVRQMPGKGLEWMGIIYPGDSDTRYSPSFQGQVTISADKSISTAYLQWSSLKASDTAVYFCARQRTFYYDSSGYFDYWGQGTLVTVSS VL: DIQMTQSPSSVSASVGDRVTITCRASQGISNWLAWYQQKPGKAPKLLIYAASSLQVGVPLRFSGSGSGTDFTLTISSLQPEDFATYYCQQADSFPRNFGQGTKLEIK | 9.26 fold | 42.3 fold | 0.4 fold | 0.8 fold | no binding | 0.00049 s⁻¹ | 160000 M⁻¹ s⁻¹ | 0.0012 s⁻¹ | 330000 M⁻¹ s⁻¹
9 | 6E7 (antibody, human IgG2, V domains shown, human IgG2 from hybridoma) VH: EVQLVQSGAEVKKPGESLKISCKGSGYSFTSYWIAWVRQMPGKGLEWMGIIYPGDSDTRYSPSFQGQVTISADKSISTAYLQWSSLKASDTAMYFCARQRTFYYDSSDYFDYWGQGTLVTVSS VL: DIQMTQSPSSVSASVGDRVTITCRASQGISSWLAWYQQKPGKAPKLLIYAASSLQNGVPSRFSGSGSGTDFTLTISSLQPEDFATYFCQQADSFPRTFGQGTKLEIK | 13.7 fold | 82.7 fold | 1.2 fold | 1.2 fold | no binding | 0.00069 s⁻¹ | 270000 M⁻¹ s⁻¹ | 0.0011 s⁻¹ | 460000 M⁻¹ s⁻¹
10 | 12G10 (antibody, human IgG2, V domains shown, human IgG2 from hybridoma) VH: EVQLLESGGGLVQPGGSLRLSCAASGFTFSSYAMSWVRQAPGKGLEWVSAIGGGGVSTYCADSVKGRFTISRDNSKNTLYLQMNSLRAEDTAVYYCAKFYIAVAGSHFDYWGQGTLVTVSS VL: QAVPTQPSSLSASPGVLASLTCTLRSGINVGTYRIYWYQQKPGSPPQYLLRYKSDSDKQQGSGVPSRFSGSKDASANAGILLISGLQSEDEADYYCMIWYSSAVVFGGGTKLTVL | 11.1 fold | – | 1.1 fold | 1.1 fold | no binding | – | – | – | –
11 | 14C12 (antibody, human IgG2, V domains shown, human IgG2 from hybridoma) VH: EVQLVQSGAEVKKPGESLMISCKGSGYSFTSYWIGWVRQMPGKGLEWMGIIYPGDSDTRYSPSFQGQVTISADKSISTAYLQWSSLKASDTAMYFCARRRQGIWGDALDFWGQGTLVTVSS VL: EIVMTQSPATLSVSPGERATLSCRASQSVSSNLAWFQQKPGQAPRLLIYGASTRATGIPARFSVSGSGTEFTLTISSLQSEDFAVYYCLQDNNWPPTFGPGTKVDIK | 11.1 fold | 63.2 fold | 1.1 fold | 1.4 fold | no binding | – | – | – | –
12 | 16B8 (antibody, human IgG4, V domains shown, human IgG4 (G4) from hybridoma) VH: QVQLVQSGAEVKKPGASVKVSCKASGYTFTNYGISWVRQAPGQGLEWMGWISAYNGNTNYAQKLQGRVTMTTDTSTSTVYMELRSLRSDDTAVYYCARRGYSYGSFDYWGQGTLVTVSS VL: DIQMTQSPSSVSASVGDRVTVTCRASQDINSWLAWYQQKPGKAPKLLIYAASSLQTGVPSRFSGSGSGTDFTLTISSLQPEDFATYSCQQSNSFPITFGQGTRLEIK | – | 23.3 fold | 1.1 fold | 1.1 fold | no binding | – | – | – | –
